Type in all cases: ADME, organism-based
Common to all, as to conditions: in vivo

In data set [1] the test system is Homo sapiens. Description: Intercompartment clearance in Papua new Guinean women in second or third trimester of pregnancy using pharmacokinetic base model at 450 mg/day, po administered as three divided doses in presence of sulfadoxine-pyrimethamine by HPLC method.
The test system of data set [2] is Homo sapiens. Description: Intercompartment clearance in Papua new Guinean women in second or third trimester of pregnancy using pharmacokinetic final covariate model at 450 mg/day, po administered as three divided doses in presence of sulfadoxine-pyrimethamine by HPLC method.
In data set [3] the test system is Homo sapiens. Put plainly: Intercompartment clearance in Papua new Guinean women in second or third trimester of pregnancy using pharmacokinetic base model assessed as monodesethychloroquine at 450 mg/day, po administered as three divided doses in presence of sulfadoxine-pyrimethamine by HPLC method.
Data set [4] relates to Homo sapiens. Put plainly: Clearance in Papua new Guinean women in second or third trimester of pregnancy using pharmacokinetic base model assessed as monodesethychloroquine at 450 mg/day, po administered as three divided doses in presence of sulfadoxine-pyrimethamine by HPLC method.
The subject of data set [5] is Homo sapiens. Put plainly: Clearance in Papua new Guinean women in second or third trimester of pregnancy using pharmacokinetic final covariate model assessed as monodesethychloroquine at 450 mg/day, po administered as three divided doses in presence of sulfadoxine-pyrimethamine by HPLC method.
The subject of data set [6] is Homo sapiens. Put plainly: Intercompartment clearance in Papua new Guinean women in second or third trimester of pregnancy using pharmacokinetic final covariate model assessed as monodesethychloroquine at 450 mg/day, po administered as three divided doses in presence of sulfadoxine-pyrimethamine by HPLC method.

Take `CCN(CC)CCCC(C)Nc1ccnc2cc(Cl)ccc12` (stereo unspecified) [CHLOROQUINE]: the apparent clearance CL/F in data set [1] was 20 L/h; in data set [2] it was 20 L/h; in data set [3], 3.6 L/h; in data set [4], 9.2 L/h; in data set [5], 7 L/h; in data set [6], 3.6 L/h.

The CL/F is clearance divided by bioavailability, as obtained after extravascular dosing.

The values above are taken from ChEMBL document CHEMBL1255405, “Pharmacokinetics of chloroquine and monodesethylchloroquine in pregnancy” (Antimicrob Agents Chemother, 2010).
